The results in this text go back to patent US20210024583A1, “COMPOSITIONS AND METHODS FOR PEPTIDE MEDIATED OLIGONUCLEOTIDE DELIVERY TO THE CENTRAL NERVOUS SYSTEM” (The Regents of the University of California, priority 2019, published 2021).

One data set has as its system ASyn. As to the kind of experiment: ASyn accumulation in differentiated SH-SY5Y cells infected with LV-ASyn or LV-Ctrl. The following applies: 100 pmol, 48 hours, immunohistochemistry, confirmed by immunoblot. Format: cell-based, human. The procedure: In order to determine if the ApoB^11:2-OMe ASyn could reduce the accumulation of ASyn in a neuronal cell line as efficiently as the RNA sequence, we differentiated SH-SY5Y human neuroblastoma cells and infected with a lentivirus vector overexpressing human ASyn (LV-ASyn) or a control vector (LV-Ctrl). Cells were treated with the ApoB^11:oligonucleotide for 48 hours and then either fixed/stained for ASyn or cell lysates were collected/analyzed by immunoblot for ASyn protein. […] Thus, the 2′OMe backbone was efficiently transport into cells and reduced the expression of ASyn in neurons.
In order to determine whether ApoB^11:2-OMe siα-syn can reduce accumulation of α-syn in a neuronal cell line as efficiently as the RNA backbone (siRNA α-syn), we infected differentiated SH-SY5Y human neuroblastoma cells with a lentivirus vector overexpressing human α-syn (LV-α-syn) or control vector (LV-Ctrl). Cells were then treated with ApoB^11:si α-syn (alphα-syn) or ApoB^11:si scrambled for 48 hours and then either fixed and immunostained for α-syn or lysed for immunoblot analysis of α-syn protein.
FIG. 9A-D illustrates data showing that the delivery of ApoB^11:2′-OMe siASyn ASO reduces the accumulation of A-Syn in human neuronal cells in vitro. Human neuroblastoma cells, SH-SY5Y, were differentiated and infected with LV-ASyn or LV-Ctrl for 72 hours in differentiation media. […]
(In general: Immunoblotting shows a protein as a band on a membrane.)

A further data set deals with GFAP. The data set can be described thus: GFAP immunoreactivity (astrogliosis) in α-syn tg mice after repeat i.p. injections. The format is in vivo, mouse. The following applies: neocortex and CA3 region of hippocampus. The procedure: To determine if the siαSyn gene transfer ameliorated the neurodegenerative alterations associated with the expression of α-syn, briefly as previously described, blind-coded, 40-μm thick vibratome sections from mouse brains fixed in 4% paraformaldehyde were immunolabeled with the mouse monoclonal antibodies against NeuN (neuronal marker, Millipore) or glial fibrillary acidic protein (GFAP, astroglial marker, Chemicon). After overnight incubation with the primary antibodies, sections were incubated with biotinylated secondary antibody and reacted with diaminobenzidine, transferred to SuperFrost™ slides (Fisher Scientific). All sections were processed under the same standardized conditions. For each mouse, a total of three sections each were analyzed and for each section, three fields each in the frontal cortex, hippocampus and striatum were examined. For NeuN, results were expressed as numbers of positive cells and for GFAP and Synuclein, results were expressed as corrected optical density. Optical density measurements were obtained using the ImageQuant™ software and quantification performed by correcting against background signal levels. All sections were processed simultaneously under the same conditions and experiments were performed twice in order to assess the reproducibility of results. Sections were imaged with a digital scanning microscope (Zeiss). […]

As to “5′GGG CAU ACU GAG CUA ACA A (GGGCAUACUGAGCUAACAA; siRNA; mixed with ApoB11 or C2-9r carrier peptide, further chemistry not given here) [si-scrambled]”, the “endogenous levels of ASyn in cells infected with LV-Ctrl” value with ASyn is recorded as “high levels of endogenous α-syn”. In addition, the GFAP immunoreactivity result in the data set with GFAP is listed as “increased GFAP immunoreactivity”.
